Assay [1] concerns the target human TF (Innovin®) (human) (UniProt P13726). Description: cell-based or functional assay.
A further assay addresses tissue factor (TF) (UniProt P13726). Description: calculated from the earlier TF/D3H44-Fab crystal structure.

Sequences of proteins named here, by UniProt entry; tags and fusion partners are left off. Residues count along the entry.
UniProt P13726, 33-295 limits assumed: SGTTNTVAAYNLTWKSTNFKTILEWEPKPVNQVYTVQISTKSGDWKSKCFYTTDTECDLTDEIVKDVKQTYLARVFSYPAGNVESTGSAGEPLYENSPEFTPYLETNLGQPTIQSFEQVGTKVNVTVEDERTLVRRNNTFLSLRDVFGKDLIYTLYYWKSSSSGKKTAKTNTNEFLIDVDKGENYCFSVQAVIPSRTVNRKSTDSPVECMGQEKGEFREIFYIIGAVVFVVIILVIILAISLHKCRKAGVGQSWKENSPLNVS
UniProt P13726, 33-251 limits assumed: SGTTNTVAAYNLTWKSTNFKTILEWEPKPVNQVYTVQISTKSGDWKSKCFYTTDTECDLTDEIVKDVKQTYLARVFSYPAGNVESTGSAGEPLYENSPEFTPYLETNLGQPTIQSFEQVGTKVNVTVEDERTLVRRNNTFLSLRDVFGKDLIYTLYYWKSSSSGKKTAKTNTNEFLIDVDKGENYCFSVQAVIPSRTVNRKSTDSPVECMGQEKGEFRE

As to D3H44 (antibody), the prolongation of the prothrombin time in citrated human plasma in assay [1] fell in the range of 3 to 7 fold.
For D3H44-Fab, in the assay with tissue factor (TF), the shape complementarity (sc) is 0.71, the solvent accessible surface area lost by D3H44-Fab VH was 700 Å^2 and the solvent accessible surface area lost by the D3H44-Fab light chain is 280 Å^2.

(Values after patent publication US20060177446A1.)
